Assay results reported in PubChem BioAssay AID2751 (The Scripps Research Institute Molecular Screening Center, 2010).
The entries are a selection whose mix differs from that of the whole data set. Some salts and complexes are drawn in separate pieces, as the source files them; their charges need not balance. Activity calls are given as the source filed them. Rule as the data show it: active = inhibition above about 43%; inactive = the rest.

Sequences of proteins named here, by UniProt entry; tags and fusion partners are left off.
UniProt Q4J6C6, whole entry: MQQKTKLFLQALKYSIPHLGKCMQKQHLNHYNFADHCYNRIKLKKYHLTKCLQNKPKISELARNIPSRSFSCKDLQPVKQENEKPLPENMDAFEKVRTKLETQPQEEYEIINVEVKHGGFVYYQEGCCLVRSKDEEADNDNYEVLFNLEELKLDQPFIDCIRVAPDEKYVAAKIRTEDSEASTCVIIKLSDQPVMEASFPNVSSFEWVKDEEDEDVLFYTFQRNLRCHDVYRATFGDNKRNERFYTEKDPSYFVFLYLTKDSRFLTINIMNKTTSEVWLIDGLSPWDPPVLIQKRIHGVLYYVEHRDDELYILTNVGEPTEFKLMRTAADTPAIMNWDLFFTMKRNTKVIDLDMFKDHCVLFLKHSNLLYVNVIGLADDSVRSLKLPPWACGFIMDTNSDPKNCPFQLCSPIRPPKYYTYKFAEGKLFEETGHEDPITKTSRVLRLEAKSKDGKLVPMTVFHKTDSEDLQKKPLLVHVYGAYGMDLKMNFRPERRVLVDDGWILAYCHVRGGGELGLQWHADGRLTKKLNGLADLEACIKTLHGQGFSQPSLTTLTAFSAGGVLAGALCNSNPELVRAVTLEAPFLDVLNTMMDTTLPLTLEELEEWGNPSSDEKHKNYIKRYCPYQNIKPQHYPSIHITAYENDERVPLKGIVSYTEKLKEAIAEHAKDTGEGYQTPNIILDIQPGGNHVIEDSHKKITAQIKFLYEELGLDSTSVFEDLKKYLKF

molecular target: Prolyl endopeptidase-like (Homo sapiens) (UniProt Q4J6C6); test: human PREPL activity-probe blockers – biochemical, fluorescence polarization, primary screen (AID 2751); settings: recombinant PREPL, fluorescence polarization activity-based probe; at 5.96 µM; stronger effect = higher value;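 also: 0% = enzyme with DMSO and 100% = wells lacking enzyme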

SMILES	inhibition
COc1ccc(NP(C)(=O)Oc2ccccc2OC)cc1 (centres undefined)	inactive: 5.28%
O=[N+]([O-])c1cc([N+](=O)[O-])c(NCC2CCS(=O)(=O)C2)c([N+](=O)[O-])c1 (centres undefined)	inactive: 2.98%
CP(=O)(Nc1ccc(SC(F)(F)F)cc1)Oc1ccc(F)cc1 (centres undefined)	inactive: -8.52%
CCOP(C)(=S)SCC(=O)NC(C)(CC)C(=O)O (centres undefined)	inactive: 12.2%
CP(=O)(Nc1ccc2c(c1)OCCO2)Oc1ccccc1 (centres undefined)	inactive: -3.5%
Cc1ccccc1NP(C)(=O)Nc1ccccc1C	inactive: 10.9%
CP(=O)(Nc1ccccc1F)Oc1ccccc1 (centres undefined)	inactive: -0.75%
CC(C)c1ccc(OP(C)(=O)Nc2ccc(SC(F)(F)F)cc2)cc1 (centres undefined)	inactive: -11.9%
O=C(OC1CN2CCC1CC2)c1ccc([N+](=O)[O-])cc1 (centres undefined)	inactive: 0.21%
O=C(OCCN1CCN(CCOCc2ccccc2)CC1)C(O)(c1ccccc1)c1ccccc1	inactive: 17.1%
COc1ccc2c(c1O)-c1c(O)c(OC)cc3c1[C@H](C2)[N+](C)(C)CC3.O=[N+]([O-])c1cc([N+](=O)[O-])c([O-])c([N+](=O)[O-])c1[O-]	inactive: -0.34%
CCOC(=O)c1ccc(NP(C)(=O)Oc2ccc(F)cc2)cc1 (centres undefined)	inactive: 3.22%
COc1ccc(OP(C)(=O)Nc2ccc(SC(F)(F)F)cc2)cc1 (centres undefined)	inactive: -13.5%
CCN(CC)CCCOC(=O)C(O)(c1ccccc1)C1CCCCC1 (centres undefined)	inactive: -1.58%
CP(=O)(Nc1ccccc1)Oc1ccc(F)cc1 (centres undefined)	inactive: 4.51%
O=[N+]([O-])c1cc([N+](=O)[O-])c(OC2CCCCC2O)c([N+](=O)[O-])c1 (centres undefined)	inactive: -7.6%
CCCCCOc1ccc(NP(C)(=O)Oc2ccc(Cl)cc2Cl)cc1 (centres undefined)	inactive: 4.84%
Cc1cc(C)cc(OP(C)(=O)Nc2cccc(C(F)(F)F)c2)c1 (centres undefined)	inactive: -5.12%
COc1ccccc1OP(C)(=O)Nc1ccc(C)c(C)c1 (centres undefined)	inactive: 3.35%
COc1ccc(OP(C)(=O)Nc2ccccc2Br)cc1 (centres undefined)	inactive: 3.44%
Cc1nc2ccc3ccccc3c2o1.O=[N+]([O-])c1cc([N+](=O)[O-])c(O)c([N+](=O)[O-])c1	inactive: -7.67%
CP(=O)(OCCOc1ccccc1)OCCOc1ccccc1	inactive: -13.3%

SMILES	inhibition
CP(=O)(Nc1ccc(Cl)cc1Cl)Oc1ccccc1 (centres undefined)	inactive: -3.22%
COc1ccccc1OP(C)(=O)Nc1ccc(Br)cc1 (centres undefined)	inactive: 5.15%
COc1ccc(OP(C)(=O)Nc2ccccn2)cc1 (centres undefined)	inactive: -1.55%
CN(C)CCOC(=O)C(O)(c1ccccc1)C1CCCC1 (centres undefined)	inactive: -0.8%
O=[N+]([O-])c1cc([N+](=O)[O-])c(Nc2ccccn2)c([N+](=O)[O-])c1	inactive: 13.8%
Cc1c(NP(C)(=O)Oc2ccc(C(C)C)cc2)c(=O)n(-c2ccccc2)n1C (centres undefined)	inactive: 2.14%
COc1ccccc1OP(C)(=O)Nc1ccc(C)cc1C (centres undefined)	inactive: 6.45%
CP(=O)(Nc1ccccn1)Oc1ccccc1 (centres undefined)	inactive: -0.28%
CCc1ccc(OP(C)(=O)O)cc1	inactive: 0.29%
COc1ccc(OP(C)(=O)Nc2ccc(Br)cc2)cc1 (centres undefined)	inactive: -17.2%
CCN(CC)CC(O)COC(=O)C(O)(c1ccccc1)C1CCCCC1 (centres undefined)	inactive: -1.51%
O=C(OCCCN1CCCC1)C(O)(c1ccccc1)C1CCCCC1 (centres undefined)	inactive: 1.74%
COc1ccccc1OP(C)(=O)Nc1c(C)n(C)n(-c2ccccc2)c1=O (centres undefined)	inactive: 7.76%
CCc1ccc(OP(C)(=O)Nc2cccnc2)cc1 (centres undefined)	inactive: -2.42%
CP(=O)(Oc1ccccc1)N1CCOC1=O (centres undefined)	inactive: -4.55%
CC(C)(C)c1ccc(OP(C)(=O)O)cc1	inactive: 13.1%
COc1ccccc1OP(C)(=O)Nc1ccccc1Br (centres undefined)	inactive: -1.89%
CP(=O)(Nc1ccc(Cl)cc1)Oc1ccc(F)cc1 (centres undefined)	inactive: 0.25%
CN(C)C(=O)c1c([N+](=O)[O-])cc([N+](=O)[O-])cc1[N+](=O)[O-]	inactive: -3.32%
Nc1ccc2c(ccc3cccnc32)n1.O=[N+]([O-])c1cc([N+](=O)[O-])c(O)c([N+](=O)[O-])c1	inactive: 17.7%
CCOC(=O)c1ccc(NP(C)(=O)Oc2ccc(Cl)cc2)cc1 (centres undefined)	inactive: -17.8%
CP(=O)(OC12CC3CC(CC(C3)C1)C2)OC12CC3CC(CC(C3)C1)C2	inactive: 13.4%
